Earlier results, collected in publication PMC9769694, “Discovery of Two Inhibitors of the Type IV Pilus Assembly ATPase PilB as Potential Antivirulence Compounds” (Microbiology Spectrum, 2022).

Protein sequences, listed by entry. Tags and fused reporters are not part of them.
UniProt G2LDI3, entry or part of it: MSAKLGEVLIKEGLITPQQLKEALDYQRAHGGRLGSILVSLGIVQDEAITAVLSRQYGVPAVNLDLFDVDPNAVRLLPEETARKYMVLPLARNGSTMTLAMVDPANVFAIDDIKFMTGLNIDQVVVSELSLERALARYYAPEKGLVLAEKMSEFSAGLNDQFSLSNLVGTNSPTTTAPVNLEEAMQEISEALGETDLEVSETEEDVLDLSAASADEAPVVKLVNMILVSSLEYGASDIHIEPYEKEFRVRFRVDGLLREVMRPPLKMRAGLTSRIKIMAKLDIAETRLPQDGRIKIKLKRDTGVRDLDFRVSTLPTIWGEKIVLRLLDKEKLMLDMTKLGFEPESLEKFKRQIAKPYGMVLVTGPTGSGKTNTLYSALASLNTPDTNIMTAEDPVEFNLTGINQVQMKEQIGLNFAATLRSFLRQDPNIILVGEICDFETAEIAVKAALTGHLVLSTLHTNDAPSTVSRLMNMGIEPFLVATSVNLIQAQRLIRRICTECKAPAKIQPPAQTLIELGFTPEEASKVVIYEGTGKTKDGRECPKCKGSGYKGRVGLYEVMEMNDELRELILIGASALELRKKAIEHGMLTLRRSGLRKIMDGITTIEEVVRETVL

Molecular target: CtPilB (Chloracidobacterium thermophilum, UniProt G2LDI3)
Conditions: read-out: IC50 from effect on MANT-ATP binding; cited from earlier work

In the case of `O=c1c(O)c(-c2ccc(O)c(O)c2)oc2cc(O)cc(O)c12` [quercetin], the IC50 is given as 2.1 µM.
